Values of other authors as cited in paper PMC12979414, “Ascending single-dose study of the safety, pharmacokinetics, and pharmacodynamics of CSTI-500, a novel monoamine triple reuptake inhibitor, first-in-human” (Psychopharmacology, 2025).

Test system: SERT
Conditions: 25 mg; ref Meyer et al. [2004]

CN[C@H]1CC[C@@H](c2ccc(Cl)c(Cl)c2)c2ccccc21 [sertraline]
striatal SERT occupancy: approximately 70%
